For one molecule, Kd results are on record in PMC11203266, “Continuous evolution of compact protein degradation tags regulated by selective molecular glues” (Science (New York, N.Y.), 2024).

Sequences of proteins named here, by UniProt entry; tags and fusion partners are left off.
UniProt Q96SW2, whole entry: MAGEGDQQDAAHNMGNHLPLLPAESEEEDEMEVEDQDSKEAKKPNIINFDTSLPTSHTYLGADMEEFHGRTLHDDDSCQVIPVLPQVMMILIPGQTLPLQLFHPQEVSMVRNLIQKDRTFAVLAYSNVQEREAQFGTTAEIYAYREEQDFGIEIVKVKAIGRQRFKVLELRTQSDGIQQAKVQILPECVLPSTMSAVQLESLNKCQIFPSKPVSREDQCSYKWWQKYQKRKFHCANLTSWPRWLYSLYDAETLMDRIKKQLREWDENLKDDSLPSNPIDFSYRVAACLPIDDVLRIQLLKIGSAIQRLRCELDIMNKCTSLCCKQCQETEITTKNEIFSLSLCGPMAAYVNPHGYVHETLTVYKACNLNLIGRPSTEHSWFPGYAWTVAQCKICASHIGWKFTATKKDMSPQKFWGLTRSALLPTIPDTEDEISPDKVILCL
UniProt Q16531, whole entry partner: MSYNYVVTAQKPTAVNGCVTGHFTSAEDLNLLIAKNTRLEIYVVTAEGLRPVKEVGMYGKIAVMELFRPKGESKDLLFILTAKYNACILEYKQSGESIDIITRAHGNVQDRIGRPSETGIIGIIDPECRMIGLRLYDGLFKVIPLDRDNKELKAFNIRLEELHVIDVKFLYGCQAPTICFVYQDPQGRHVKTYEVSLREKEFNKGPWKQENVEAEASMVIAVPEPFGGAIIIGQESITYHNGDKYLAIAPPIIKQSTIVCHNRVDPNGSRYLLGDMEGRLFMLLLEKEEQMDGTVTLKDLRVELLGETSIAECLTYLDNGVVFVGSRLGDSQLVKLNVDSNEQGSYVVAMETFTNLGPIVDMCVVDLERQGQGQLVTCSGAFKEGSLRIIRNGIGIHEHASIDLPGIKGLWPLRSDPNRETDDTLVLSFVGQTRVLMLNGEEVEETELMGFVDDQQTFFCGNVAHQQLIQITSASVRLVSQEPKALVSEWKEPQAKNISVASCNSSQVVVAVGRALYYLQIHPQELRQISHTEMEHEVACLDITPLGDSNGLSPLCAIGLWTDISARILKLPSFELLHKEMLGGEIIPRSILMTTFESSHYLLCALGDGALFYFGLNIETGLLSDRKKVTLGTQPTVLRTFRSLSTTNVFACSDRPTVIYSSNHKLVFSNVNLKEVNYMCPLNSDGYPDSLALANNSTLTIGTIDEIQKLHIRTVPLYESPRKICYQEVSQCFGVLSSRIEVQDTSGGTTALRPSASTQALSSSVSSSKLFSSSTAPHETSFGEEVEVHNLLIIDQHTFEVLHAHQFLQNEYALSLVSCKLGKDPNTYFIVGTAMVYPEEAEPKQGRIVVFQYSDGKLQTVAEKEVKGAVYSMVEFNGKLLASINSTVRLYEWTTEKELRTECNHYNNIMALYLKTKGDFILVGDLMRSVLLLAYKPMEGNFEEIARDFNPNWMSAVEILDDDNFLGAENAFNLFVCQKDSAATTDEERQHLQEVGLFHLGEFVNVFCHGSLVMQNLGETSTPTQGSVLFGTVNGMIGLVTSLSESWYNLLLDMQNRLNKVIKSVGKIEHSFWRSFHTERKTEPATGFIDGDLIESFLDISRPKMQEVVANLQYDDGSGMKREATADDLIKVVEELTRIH

This experiment has as its target DDB1•CRBN (Homo sapiens, UniProt Q96SW2). Kind of experiment: Fluorescence polarization, thalidomide-Cy5 binding. The conditions noted are these: direct binding, saturation one site model.

In general, Kd refers to the free concentration of one partner at which half of the binding sites on the other are occupied at equilibrium, for simple one-to-one binding. Low readings indicate higher affinity, high ones lower affinity. In the case of `C[N+]1=C(C=CC=CC=C2N(CCCCCC(=O)NCCCCNC(=O)COc3cccc4c3C(=O)N(C3CCC(=O)NC3=O)C4=O)c3ccccc3C2(C)C)C(C)(C)c2ccccc21` (stereo not shown), the dissociation constant (Kd) came to 0.431 µM.
